Patent EP3771713A1 (priority 2019, dated 2021)

Amino acid sequences for entries named in this document (tags omitted). Residues count along the entry.
UniProt P06276, 29-602 limits assumed: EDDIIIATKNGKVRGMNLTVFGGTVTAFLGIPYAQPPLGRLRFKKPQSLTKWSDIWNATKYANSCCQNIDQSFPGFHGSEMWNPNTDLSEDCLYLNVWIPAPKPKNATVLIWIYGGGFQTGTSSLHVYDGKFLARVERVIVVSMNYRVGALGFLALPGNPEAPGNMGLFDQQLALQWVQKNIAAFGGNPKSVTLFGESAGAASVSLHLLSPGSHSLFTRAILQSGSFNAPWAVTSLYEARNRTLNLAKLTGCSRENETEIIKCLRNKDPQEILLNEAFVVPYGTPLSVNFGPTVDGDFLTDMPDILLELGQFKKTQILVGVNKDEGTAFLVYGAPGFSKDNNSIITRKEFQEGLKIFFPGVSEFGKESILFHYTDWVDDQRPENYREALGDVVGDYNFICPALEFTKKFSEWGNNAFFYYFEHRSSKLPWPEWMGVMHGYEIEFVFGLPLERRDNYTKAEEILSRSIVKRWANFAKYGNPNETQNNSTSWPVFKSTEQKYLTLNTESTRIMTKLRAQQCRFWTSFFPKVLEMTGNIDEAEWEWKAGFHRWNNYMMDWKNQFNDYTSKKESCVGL
UniProt O42275, 24-633 limits assumed: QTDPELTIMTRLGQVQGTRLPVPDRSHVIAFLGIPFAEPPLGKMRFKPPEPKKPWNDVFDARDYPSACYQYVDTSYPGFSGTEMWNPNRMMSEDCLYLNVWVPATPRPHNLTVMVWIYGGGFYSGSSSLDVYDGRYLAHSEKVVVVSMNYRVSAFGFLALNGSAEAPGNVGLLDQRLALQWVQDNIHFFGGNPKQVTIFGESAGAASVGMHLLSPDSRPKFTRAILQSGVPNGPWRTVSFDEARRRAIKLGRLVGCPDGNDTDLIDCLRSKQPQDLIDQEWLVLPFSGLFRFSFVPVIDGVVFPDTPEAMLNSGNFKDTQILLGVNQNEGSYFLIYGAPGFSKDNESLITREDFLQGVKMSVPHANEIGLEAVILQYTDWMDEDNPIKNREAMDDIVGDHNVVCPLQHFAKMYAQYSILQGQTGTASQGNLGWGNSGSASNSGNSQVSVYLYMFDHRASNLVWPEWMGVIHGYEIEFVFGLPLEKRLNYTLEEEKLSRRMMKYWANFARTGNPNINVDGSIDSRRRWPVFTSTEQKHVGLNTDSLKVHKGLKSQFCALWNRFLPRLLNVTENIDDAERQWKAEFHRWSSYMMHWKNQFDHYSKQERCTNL
UniProt P22303, 32-614 limits assumed: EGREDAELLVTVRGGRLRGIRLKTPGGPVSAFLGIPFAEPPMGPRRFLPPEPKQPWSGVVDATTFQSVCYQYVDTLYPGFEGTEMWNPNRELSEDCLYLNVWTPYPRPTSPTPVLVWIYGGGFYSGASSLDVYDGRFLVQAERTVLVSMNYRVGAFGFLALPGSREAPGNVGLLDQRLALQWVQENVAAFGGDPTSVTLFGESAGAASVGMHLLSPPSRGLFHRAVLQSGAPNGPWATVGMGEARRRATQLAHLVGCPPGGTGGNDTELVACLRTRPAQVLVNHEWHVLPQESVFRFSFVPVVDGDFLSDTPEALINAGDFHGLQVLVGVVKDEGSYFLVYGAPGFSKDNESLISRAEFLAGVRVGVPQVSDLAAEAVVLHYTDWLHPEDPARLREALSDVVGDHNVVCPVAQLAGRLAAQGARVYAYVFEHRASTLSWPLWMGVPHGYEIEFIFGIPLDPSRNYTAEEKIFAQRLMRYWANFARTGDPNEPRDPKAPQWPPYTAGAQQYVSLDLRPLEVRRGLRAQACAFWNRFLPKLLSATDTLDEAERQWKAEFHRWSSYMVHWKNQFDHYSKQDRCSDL
UniProt P34972, whole entry: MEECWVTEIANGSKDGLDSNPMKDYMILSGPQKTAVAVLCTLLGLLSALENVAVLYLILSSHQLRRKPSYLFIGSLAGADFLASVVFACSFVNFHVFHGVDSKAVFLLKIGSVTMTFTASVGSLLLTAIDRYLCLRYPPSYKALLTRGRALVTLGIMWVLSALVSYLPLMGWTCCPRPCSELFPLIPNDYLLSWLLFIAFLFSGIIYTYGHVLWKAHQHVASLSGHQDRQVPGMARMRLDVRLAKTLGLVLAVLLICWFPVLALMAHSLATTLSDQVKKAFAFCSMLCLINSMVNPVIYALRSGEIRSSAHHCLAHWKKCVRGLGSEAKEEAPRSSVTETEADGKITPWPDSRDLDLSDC
UniProt P21554, whole entry: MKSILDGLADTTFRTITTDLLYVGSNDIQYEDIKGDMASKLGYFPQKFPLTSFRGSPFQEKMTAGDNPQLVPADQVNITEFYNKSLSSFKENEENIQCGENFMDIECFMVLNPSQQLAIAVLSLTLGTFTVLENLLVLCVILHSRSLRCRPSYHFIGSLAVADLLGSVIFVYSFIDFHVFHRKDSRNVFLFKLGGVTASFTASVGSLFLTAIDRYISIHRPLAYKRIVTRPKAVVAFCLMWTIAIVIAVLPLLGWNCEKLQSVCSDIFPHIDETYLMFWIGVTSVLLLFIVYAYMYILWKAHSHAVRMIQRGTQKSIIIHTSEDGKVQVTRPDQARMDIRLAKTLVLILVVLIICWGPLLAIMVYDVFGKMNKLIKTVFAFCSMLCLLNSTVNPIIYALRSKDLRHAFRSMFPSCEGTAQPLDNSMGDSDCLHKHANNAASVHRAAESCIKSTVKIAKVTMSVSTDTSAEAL

Columns and labels:
hBChE = hBChE (Homo sapiens, UniProt P06276); test: Ellman's assay, inhibition of hBChE; assay type: biochemical
eeAChE = eeAChE (Electrophorus electricus, UniProt O42275); test: Ellman's assay, inhibition of eeAChE; assay type: biochemical; conditions: read-out: IC50 AChE (eeAChE); eeAChE from electric eel
hAChE = hAChE (Homo sapiens, UniProt P22303); test: Ellman's assay, inhibition of hAChE; assay type: biochemical; conditions: hAChE recombinant expressed
hCB2R = hCB2R (Homo sapiens, UniProt P34972); test: Radioligand binding ([^3H]CP 55,940) at hCB2R, membranes of HEK cells; conditions: membranes of HEK cells stably expressing hCB2R
hCB1R = hCB1R (Homo sapiens, UniProt P21554); test: Radioligand binding ([^3H]CP 55,940) at hCB1R, membranes of CHO cells; conditions: 10 µM of the compound
HT-22 cells [1] = conditions: 5 mM glutamate, 24 h, MTT
[2] = tested on: Aβ25-35-induced learning impairments in mice; conditions: i.p., once per day day 1 to 7
HT-22 cells [3] = test: Neurotoxicity on HT-22 cells (MTT assay); conditions: 24 h, max. 10 µM
Livers of mice = test: Liver histology of mice treated with the high dose; conditions: Aβ25-35 mice, 3 mg/kg

In the case of CCOc1ccc(Cc2nc3cc(C(=O)N(CC)CC)ccc3n2CCNc2c3c(nc4ccccc24)CCCC3)cc1, the SI (hBChE; Selectivity index towards hBChE = IC50(eeAChE)/IC50(hBChE)) is reported as 750, the “inhibitory potency towards hBChE compared to tacrine” value (hBChE; compared to tacrine) is reported as “increased inhibitory potency” and the “pIC50 ± SD hBChE” value (hBChE; hBChE from human serum) is reported as 8.9 ± 0.1. The IC50 (hBChE; read-out: IC50 hBChE, hBChE from human serum, means of at least three determinations) was 1.2 nM, the IC50 (eeAChE) was 900 nM and the “pIC50 ± SD AChE (hAChE)” value (hAChE) was 8.6 ± 0.1. For the same molecule, the IC50 (hAChE; read-out: IC50 AChE (hAChE)) was 2.8 nM, the “pIC50 ± SD hCB2R (in brackets after Ki)” value (hCB2R) was 4.4 ± 0.3 and the Ki (hCB2R; read-out: Ki hCB2R) was 38500 nM. For the same molecule, the “[^3H]CP 55,940 displ. @10 µM hCB1R” value (hCB1R) was 36%, the “neuroprotective behavior (in words)” value (HT-22 cells [1]) was “none” and the “dose that significantly prevented Aβ25-35-induced learning impairments” value [2] was no less than 1 mg/kg. The “neurotoxicity (in words)” value (HT-22 cells [3]) was “no neurotoxicity”, the “Micro vesicular steatosis % of specimen” value (Livers of mice) was 66% and the “Micro vesicular steatosis positive/specimen” value (Livers of mice) was 8 / 12. The “Micro vesicular steatosis reported area %” value (Livers of mice) was 5-30%, the “Necrosis % of specimen” value (Livers of mice) was 66% and the “Necrosis reported area %” value (Livers of mice) was 2-50%. The Necrosis positive/specimen (Livers of mice; fresh necrosis) was 8 / 12.

This is a selection: effects in other tests are not listed, and their absence says nothing.
